From IntAct's records for PubMed 24670654

B1: RAC-alpha serine/threonine-protein kinase (Homo sapiens), P31749 (parent)
chain: MSDVAIVKEGWLHKRGEYIKTWRPRYFLLKNDGTFIGYKERPQDVDQREAPLNNFSVAQCQLMKTERPRPNTFIIRCLQWTTVIERTFHVETPEEREEWTTAIQTVADGLKKQEEEEMDFRSGSPSDNSGAEEMEVSLAKPKHRVTMNEFEYLKLLGKGTFGKVILVKEKATGRYYAMKILKKEVIVAKDEVAHTLTENRVLQNSRHPFLTALKYSFQTHDRLCFVMEYANGGELFFHLSRERVFSEDRARFYGAEIVSALDYLHSEKNVVYRDLKLENLMLDKDGHIKITDFGLCKEGIKDGATMKTFCGTPEYLAPEVLEDNDYGRAVDWWGLGVVMYEMMCGRLPFYNQDHEKLFELILMEEIRFPRTLGPEAKSLLSGLLKKDPKQRLGGGSEDAKEIMQHRFFAGIVWQHVYEKKLSPPFKPQVTSETDTRYFDEEFTAQMITITPPDQDDSMECVDSERRPHFPQFSYSASGTA

Variants of: B1
Conditions: with ccna2_human CCNA2

Row | effect of a mutation on the interaction | Variant
1 | decreasing interaction strength | MSDVAIVKEGWLHKRGEYIKTWRPRYFLLKNDGTFIGYKERPQDVDQREAPLNNFSVAQCQLMKTERPRPNTFIIRCLQWTTVIERTFHVETPEEREEWTTAIQTVADGLKKQEEEEMDFRSGSPSDNSGAEEMEVSLAKPKHRVTMNEFEYLKLLGKGTFGKVILVKEKATGRYYAMKILKKEVIVAKDEVAHTLTENRVLQNSRHPFLTALKYSFQTHDRLCFVMEYANGGELFFHLSRERVFSEDRARFYGAEIVSALDYLHSEKNVVYRDLKLENLMLDKDGHIKITDFGLCKEGIKDGATMKTFCGTPEYLAPEVLEDNDYGRAVDWWGLGVVMYEMMCGRLPFYNQDHEKLFELILMEEIRFPATAGPEAKSLLSGLLKKDPKQRLGGGSEDAKEIMQHRFFAGIVWQHVYEKKLSPPFKPQVTSETDTRYFDEEFTAQMITITPPDQDDSMECVDSERRPHFPQFSYSASGTA [R370A;L372A]
2 | disrupting interaction strength | MSDVAIVKEGWLHKRGEYIKTWRPRYFLLKNDGTFIGYKERPQDVDQREAPLNNFSVAQCQLMKTERPRPNTFIIACLQWTTVIERTFHVETPEEREEWTTAIQTVADGLKKQEEEEMDFRSGSPSDNSGAEEMEVSLAKPKHRVTMNEFEYLKLLGKGTFGKVILVKEKATGRYYAMKILKKEVIVAKDEVAHTLTENRVLQNSRHPFLTALKYSFQTHDRLCFVMEYANGGELFFHLSRERVFSEDRARFYGAEIVSALDYLHSEKNVVYRDLKLENLMLDKDGHIKITDFGLCKEGIKDGATMKTFCGTPEYLAPEVLEDNDYGRAVDWWGLGVVMYEMMCGRLPFYNQDHEKLFELILMEEIRFPRTLGPEAKSLLSGLLKKDPKQRLGGGSEDAKEIMQHRFFAGIVWQHVYEKKLSPPFKPQVTSETDTRYFDEEFTAQMITITPPDQDDSMECVDSERRPHFPQFSYSASGTA [R76A]
3 | disrupting interaction strength | MSDVAIVKEGWLHKRGEYIKTWRPRYFLLKNDGTFIGYKERPQDVDQREAPLNNFSVAQCQLMKTERPRPNTFIIRCLQWTTVIERTFHVETPEEREEWTTAIQTVADGLKKQEEEEMDFRSGSPSDNSGAEEMEVSLAKPKHRVTMNEFEYLKLLGKGTFGKVILVKEKATGRYYAMKILKKEVIVAKDEVAHTLTENRVLQNSRHPFLTALKYSFQTHDRLCFVMEYANGGELFFHLSRERVFSEDRARFYGAEIVSALDYLHSEKNVVYADAKLENLMLDKDGHIKITDFGLCKEGIKDGATMKTFCGTPEYLAPEVLEDNDYGRAVDWWGLGVVMYEMMCGRLPFYNQDHEKLFELILMEEIRFPRTLGPEAKSLLSGLLKKDPKQRLGGGSEDAKEIMQHRFFAGIVWQHVYEKKLSPPFKPQVTSETDTRYFDEEFTAQMITITPPDQDDSMECVDSERRPHFPQFSYSASGTA [R273A;L275A]
4 | decreasing interaction strength | MSDVAIVKEGWLHKRGEYIKTWRPRYFLLKNDGTFIGYKERPQDVDQREAPLNNFSVAQCQLMKTERPRPNTFIIACAQWTTVIERTFHVETPEEREEWTTAIQTVADGLKKQEEEEMDFRSGSPSDNSGAEEMEVSLAKPKHRVTMNEFEYLKLLGKGTFGKVILVKEKATGRYYAMKILKKEVIVAKDEVAHTLTENRVLQNSRHPFLTALKYSFQTHDRLCFVMEYANGGELFFHLSRERVFSEDRARFYGAEIVSALDYLHSEKNVVYRDLKLENLMLDKDGHIKITDFGLCKEGIKDGATMKTFCGTPEYLAPEVLEDNDYGRAVDWWGLGVVMYEMMCGRLPFYNQDHEKLFELILMEEIRFPRTLGPEAKSLLSGLLKKDPKQRLGGGSEDAKEIMQHRFFAGIVWQHVYEKKLSPPFKPQVTSETDTRYFDEEFTAQMITITPPDQDDSMECVDSERRPHFPQFSYSASGTA [R76A;L78A]
5 | disrupting interaction strength | MSDVAIVKEGWLHKRGEYIKTWRPRYFLLKNDGTFIGYKERPQDVDQREAPLNNFSVAQCQLMKTERPRPNTFIIACLQWTTVIERTFHVETPEEREEWTTAIQTVADGLKKQEEEEMDFRSGSPSDNSGAEEMEVSLAKPKHRVTMNEFEYLKLLGKGTFGKVILVKEKATGRYYAMKILKKEVIVAKDEVAHTLTENRVLQNSRHPFLTALKYSFQTHDRLCFVMEYANGGELFFHLSRERVFSEDRARFYGAEIVSALDYLHSEKNVVYRDLKLENLMLDKDGHIKITDFGLCKEGIKDGATMKTFCGTPEYLAPEVLEDNDYGRAVDWWGLGVVMYEMMCGRLPFYNQDHEKLFELILMEEIRFPRTLGPEAKSLLSGLLKKDPKQRLGGGSEDAKEIMQHRFFAGIVWQHVYEKKLSPPFKPQVTSETDTRYFDEEFTAQMITITPPDQDDSMECVDSERRPHFPQFSYSADGEA [R76A;S477D;T479E]

Variants of: B1
Conditions: with sin1_human MAPKAP1, Q9BPZ7

Row | effect of a mutation on the interaction | Variant
6 | increasing interaction strength | MSDVAIVKEGWLHKRGEYIKTWRPRYFLLKNDGTFIGYKERPQDVDQREAPLNNFSVAQCQLMKTERPRPNTFIIRCLQWTTVIERTFHVETPEEREEWTTAIQTVADGLKKQEEEEMDFRSGSPSDNSGAEEMEVSLAKPKHRVTMNEFEYLKLLGKGTFGKVILVKEKATGRYYAMKILKKEVIVAKDEVAHTLTENRVLQNSRHPFLTALKYSFQTHDRLCFVMEYANGGELFFHLSRERVFSEDRARFYGAEIVSALDYLHSEKNVVYRDLKLENLMLDKDGHIKITDFGLCKEGIKDGATMKTFCGTPEYLAPEVLEDNDYGRAVDWWGLGVVMYEMMCGRLPFYNQDHEKLFELILMEEIRFPRTLGPEAKSLLSGLLKKDPKQRLGGGSEDAKEIMQHRFFAGIVWQHVYEKKLSPPFKPQVTSETDTRYFDEEFTAQMITITPPDQDDSMECVDSERRPHFPQFSYSADGEA [S477D;T479E]
